{"sequences": {"note": "The chains behind the UniProt entries cited, without tags or fusion partners.", "UniProt O00329, whole entry": "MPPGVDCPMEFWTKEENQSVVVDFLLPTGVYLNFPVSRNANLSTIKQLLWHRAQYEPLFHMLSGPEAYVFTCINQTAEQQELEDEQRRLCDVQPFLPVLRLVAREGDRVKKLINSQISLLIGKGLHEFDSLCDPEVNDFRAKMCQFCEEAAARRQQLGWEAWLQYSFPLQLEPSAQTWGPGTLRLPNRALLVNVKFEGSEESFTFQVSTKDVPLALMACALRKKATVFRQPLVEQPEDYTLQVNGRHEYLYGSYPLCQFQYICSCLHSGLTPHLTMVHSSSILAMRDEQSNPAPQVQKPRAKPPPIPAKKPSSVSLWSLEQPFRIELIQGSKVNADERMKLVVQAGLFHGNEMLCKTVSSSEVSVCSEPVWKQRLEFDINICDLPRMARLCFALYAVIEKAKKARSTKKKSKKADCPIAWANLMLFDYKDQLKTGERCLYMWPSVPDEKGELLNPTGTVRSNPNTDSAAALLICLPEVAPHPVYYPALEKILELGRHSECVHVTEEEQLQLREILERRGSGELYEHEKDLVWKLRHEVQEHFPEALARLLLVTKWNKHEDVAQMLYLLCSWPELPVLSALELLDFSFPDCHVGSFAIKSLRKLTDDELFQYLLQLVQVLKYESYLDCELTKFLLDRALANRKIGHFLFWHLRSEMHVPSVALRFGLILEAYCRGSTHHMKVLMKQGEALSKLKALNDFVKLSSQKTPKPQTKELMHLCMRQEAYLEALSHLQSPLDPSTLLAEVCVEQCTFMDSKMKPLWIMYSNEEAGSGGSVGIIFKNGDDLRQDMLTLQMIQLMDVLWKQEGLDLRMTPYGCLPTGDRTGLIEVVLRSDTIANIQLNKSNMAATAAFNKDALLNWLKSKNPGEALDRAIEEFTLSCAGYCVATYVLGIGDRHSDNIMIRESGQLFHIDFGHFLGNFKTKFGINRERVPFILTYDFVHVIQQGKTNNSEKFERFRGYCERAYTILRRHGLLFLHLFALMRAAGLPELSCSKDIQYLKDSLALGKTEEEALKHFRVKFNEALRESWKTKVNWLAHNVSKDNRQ", "UniProt P27986, whole entry partner": "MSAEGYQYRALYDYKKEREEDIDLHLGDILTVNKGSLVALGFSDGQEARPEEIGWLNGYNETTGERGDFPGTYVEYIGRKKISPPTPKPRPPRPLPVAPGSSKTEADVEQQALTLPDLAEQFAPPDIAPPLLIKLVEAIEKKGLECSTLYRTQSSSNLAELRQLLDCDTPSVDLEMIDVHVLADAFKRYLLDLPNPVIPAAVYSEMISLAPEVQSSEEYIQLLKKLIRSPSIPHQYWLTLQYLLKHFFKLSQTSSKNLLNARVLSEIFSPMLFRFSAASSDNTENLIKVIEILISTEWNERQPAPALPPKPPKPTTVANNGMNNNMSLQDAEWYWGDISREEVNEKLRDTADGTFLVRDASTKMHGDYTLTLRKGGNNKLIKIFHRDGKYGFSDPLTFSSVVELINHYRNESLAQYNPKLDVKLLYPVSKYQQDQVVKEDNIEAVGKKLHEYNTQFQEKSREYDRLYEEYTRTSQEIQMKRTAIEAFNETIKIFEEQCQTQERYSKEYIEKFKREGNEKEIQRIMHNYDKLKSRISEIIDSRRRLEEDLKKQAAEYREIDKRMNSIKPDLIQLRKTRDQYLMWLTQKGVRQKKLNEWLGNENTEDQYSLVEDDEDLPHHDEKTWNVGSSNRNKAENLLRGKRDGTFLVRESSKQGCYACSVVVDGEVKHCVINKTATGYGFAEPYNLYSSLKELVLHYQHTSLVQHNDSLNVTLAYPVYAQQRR"}, "source": "patent US20140058103A1", "about": "“Inhibitors of PI3K-Delta and Methods of Their Use and Manufacture” (Exelixis, Inc., priority 2010, published 2014)", "target": "PI3K delta (Homo sapiens, UniProt O00329)", "experiment": "Luciferase-coupled chemiluminescence kinase assay (ATP consumption, KinaseGlo)", "conditions": "read-out: PI3K Delta Activity IC50"}
{"smiles": "Cn1c(C(=O)NCC2CC2)nc2c(N3CCC(n4c(N)nc5ccccc54)CC3)ncnc21", "values": [{"measurement": "IC50", "result": "50 to 250", "unit": "nM"}]}
